Assay results taken from patent EP0440303A1 (PROBICOM RESEARCH B.V., priority 1990, dated 1991).

Sequences of proteins named here, by UniProt entry; tags and fusion partners are left off.
UniProt P0C2T7, whole entry: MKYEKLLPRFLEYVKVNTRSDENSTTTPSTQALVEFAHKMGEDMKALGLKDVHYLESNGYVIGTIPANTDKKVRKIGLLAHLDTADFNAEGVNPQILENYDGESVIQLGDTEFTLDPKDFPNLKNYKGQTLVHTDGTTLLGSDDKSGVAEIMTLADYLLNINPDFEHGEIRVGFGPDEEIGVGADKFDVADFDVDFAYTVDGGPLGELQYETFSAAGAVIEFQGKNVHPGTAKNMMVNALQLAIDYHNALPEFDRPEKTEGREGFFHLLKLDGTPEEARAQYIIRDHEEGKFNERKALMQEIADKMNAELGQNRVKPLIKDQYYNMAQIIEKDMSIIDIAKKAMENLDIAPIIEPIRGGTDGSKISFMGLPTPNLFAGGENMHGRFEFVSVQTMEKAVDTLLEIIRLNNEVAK

Molecular target: tripeptidase of L.lactis subsp. cremoris Wg2 (Lactococcus lactis subsp. cremoris, UniProt P0C2T7)
Experiment: Effects of chemical agents on the peptidase activity (leu3 hydrolysis)
Format: biochemical
Details: reagent 0.1 mM; 0.84 μg enzyme/ml, 10 min at pH 7 (20°C) before leu3 was added; none = 100

Structure (SMILES): O=[As]c1ccccc1 (stereo not shown)
- relative activity (%): 118%
